Test results taken from patent EP0324212A1, “Glucuronic acid derivatives of opioid antagonists” (BAKER NORTON PHARMACEUTICALS, INC., priority 1988, dated 1989).

Experiments:
[1] = tested on: opioid-dependant animals; test: Rapid Quantitative In Vivo Assay for Narcotic Antagonist of Katovich et al. (skin tail temperature rise as a CNS withdrawal sign); settings: Figure 1; doses as low as 10µg/kg
Excerpt: The Rapid Quantitative In Vivo Assay for Narcotic Antagonist of Katovich et al. (Substance and Alcohol Actions/Misuse, vol 5: 87095, 1984) was used. This assay is based on the extreme sensitivity of opioid-dependant animals to narcotic antagonists. Injection of these animals with a narcotic antagonist produces severe central nervous system withdrawal signs. One of these signs is an abrupt rise in the skin temperature of the tail.

[2] = Analysis of blood, urine and feces of rats treated with nalmefene orally; type: in vivo
Excerpt: Thus nalmefene is almost totally biotransformed as a result of "first-pass" metabolism when administered orally. Such a high degree of biotransformation is common for this type of drug. However it was discovered that the relative concentrations of free nalmefene and nalmefene glucuronide in the feces of these animals were in marked contrast to the blood and urine. Whereas the ratio of nalmefene to nalmefene glucuronide in the blood and urine was about 1:100, in the feces the ratio was about 3:1.

SMILES: C=C1CC[C@@]2(O)[C@H]3Cc4ccc(O)c5c4[C@@]2(CCN3CC2CC2)[C@H]1O5 [Nalmefene HCl, 6-methylene-6-desoxy-N-cyclopropylmethyl-14-hydroxydihydronormorphine]
- rise in skin tail temperature [1]: marked rise
- concentration of nalmefene glucuronide relative to concentration of free nalmefene [2]: about 100 fold

Where a name gives a salt, the structure may show the parent alone.
